Compound activity (PubChem BioAssay)
HCMV NEC inh: disrupts HCMV UL50-UL53 complex binding; HTRF UL50-UL53 interaction, normalized percent inhibition; inhibition, % (test concentration not listed); 190,000 compounds, 0.15% hits; AID 1918969; in the data active means inhibition above about 27%, passing the limit was not always enough
GIV-Gai inh: inhibitors of GIV peptide binding to Galpha-i3, primary screen, biochemical, fluorescence polarization, FITC-GIV GBA peptide, rat Galphai3; 90 min; stronger effect = lower value; scaled: aluminum fluoride 0%, vehicle 100%; percent of control (FP), % (no concentration beside the values); 210,000 tested, 0.42% active; AID 1224905, 2016;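 active = replicate mean at 85% of control or lower, very high polarization wells dropped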;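 note: wells of about 15 µL received 100 nL stock; the first replicate is given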
GIV Gai FP conf: confirmation of inhibitors of GIV binding to rat Galpha-i3 | shares compounds with GIV-Gai inh | FITC-GIV peptide binding to Galphai3, fluorescence polarization; active compounds read low | fluorescence polarization, mP at 100 µM | 580 compounds, 38% hits | AID 1259350;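 active means inhibition score of 15 or more, meaning 100 minus mean polarization as percent of control over three replicates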;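 further: lower mP means peptide displaced from Galphai3 so more inhibition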
GIV Gai AS conf: GIV-Galpha-i3 inhibition, AlphaScreen confirmation | AlphaScreen counts at 100 µM | 580 compounds, 39% hits | AlphaScreen Galphai3-GIV binding, purified proteins, 90 min; active compounds read low | shares compounds with GIV-Gai inh;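 active means inhibition score at or above a set limit, where the score is 100 minus the three-replicate mean percent of control signal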
Starred values were filed as active, the others as inactive; x = no result; ! = a repeat was not active. Most compounds without a hit are left out; they make up all but 0.46% or so of the library.

Results follow in this order: HCMV NEC inh	GIV-Gai inh	GIV Gai FP conf	GIV Gai AS conf
- Cc1nc(-c2ccc(N3CCN(C(=O)Nc4cccc(Cl)c4)CC3)cc2)no1
    -13	107	x	x
- O=S(=O)(c1cccc(Cl)c1)N1CCc2ccccc2C1
    12	x	x	x
- CCc1ccc(C(=O)NC(Cc2c[nH]c3ccccc23)C(=O)OCC(=O)c2ccc(OC)cc2)cc1 (stereo unspecified)
    x	104	x	x
- CCc1ccc(C(=O)NC(Cc2c[nH]c3ccccc23)C(=O)OCC(=O)c2ccccc2)cc1 (stereo unspecified)
    x	85*	61	46081
- CCCCC(=O)N1CCCN(C(=O)Nc2ccc(S(=O)(=O)N3CCCC3)s2)CC1
    x	106	x	x
- O=C(c1sc2ccccc2c1Cl)N1CCc2ccccc21
    5	x	x	x
- Nc1c(C(=O)N2CCc3ccccc32)sc2nc(C(F)(F)F)c3c(c12)CCCC3
    x	95	75	39316
- COc1ccc(C2Nc3c(C)cc(C)cc3[C@H]3OCC[C@@H]23)cc1C (stereo partly specified)
    x	105	x	x
- CC1=CC(=Nc2c(C)n(C)n(-c3ccccc3)c2=O)c2ccccc2C1=O
    -23	107	x	x
- Cc1c(N=c2c(=O)c3ccccc3c2=O)c(=O)n(-c2ccccc2)n1C
    x	62*	47*	26896
- CCc1ccc2nc(N(Cc3cccnc3)C(=O)Cc3ccccc3)sc2c1
    x	37*	77	33433
- COc1ccc2nc(N(Cc3cccnc3)C(=O)Cc3ccccc3)sc2c1
    x	112	x	x
- CCOc1ccc(-c2nc3c([nH]2)c(=O)n(C)c(=O)n3C)cc1OC
    x	101	x	x
- CCOC(=O)c1c(C)oc2c(Cl)cc(NS(=O)(=O)c3cccc([N+](=O)[O-])c3)cc12
    -9	113	x	x
- COc1ccc(Cn2ccc3nc(C)c(C(=O)Nc4cc(OC)cc(OC)c4)cc3c2=O)cc1
    -19	104	x	x
- CCc1cccc(NC(=O)c2cc3c(=O)n(Cc4ccc(OC)cc4)ccc3nc2C)c1
    x	88	79	34190
- CCOC(=O)N1CCN(C(=S)Nc2ccc(C)c(C)c2)CC1
    -14	x	x	x
- CCOC(=O)N1CCN(C(=S)Nc2ccc3nsnc3c2)CC1
    -76	77*	61*	21787
- COc1ccc(C2N(C(=O)c3ccccc3)CCCN2S(=O)(=O)c2ccc(C)cc2)cc1 (stereo unspecified)
    x	98	x	x
- Fc1ccc(CNC(c2ccc(F)cc2)c2nnc(-c3ccccc3)o2)cc1 (stereo unspecified)
    -25	102	x	x
- COc1ccc(CCNC(=O)CN2C(=O)CCCc3ccccc32)cc1OC
    -1	110	x	x
- CC(=O)Nc1cc(C)nn1C(C)(C)C
    x	101	x	x
- CC(=O)N1CC(C)=C(C#N)C1O (stereo unspecified)
    2	73*	48*	19185*
- CC(=O)N1CN(C(C)=O)C(O)C1O (stereo unspecified)
    4	103	x	x
- COc1ccc(CNC(=O)c2c3c(nc4ccccc24)C(=O)N(C2CCCCC2)C3)cc1
    x	100	x	x
- COc1cccc(CNC(=O)c2c3c(nc4ccccc24)C(=O)N(C2CCCCC2)C3)c1
    x	89	81	34982
- CCN(CC)C(=O)c1ccc2c(=O)n(Cc3ccccc3)c(SCC(=O)C(C)(C)C)nc2c1
    2	106	x	x
- O=C(O)c1cc(NS(=O)(=O)c2cc(F)ccc2F)cnc1N1CCOCC1
    -10	57*	33*	29995
- O=C(O)c1cc(NS(=O)(=O)c2cc(F)ccc2F)ccc1N1CCN(c2ccc(F)cc2)CC1
    -31	105	x	x
- O=S(=O)(c1ccc2c(c1)C(=NO)c1cc(S(=O)(=O)N(CCO)CCO)ccc1-2)N(CCO)CCO
    -92	108	x	x

Fetched one by one from the list above (four):
Results follow in this order: HCMV NEC inh	GIV-Gai inh	GIV Gai FP conf	GIV Gai AS conf
- CC(=O)N1CC(C)=C(C#N)C1O (stereo unspecified)
    2	73*	48*	19185*
- CCN(CC)C(=O)c1ccc2c(=O)n(Cc3ccccc3)c(SCC(=O)C(C)(C)C)nc2c1
    2	106	x	x
- COc1ccc(C2N(C(=O)c3ccccc3)CCCN2S(=O)(=O)c2ccc(C)cc2)cc1 (stereo unspecified)
    x	98	x	x
- CCc1ccc2nc(N(Cc3cccnc3)C(=O)Cc3ccccc3)sc2c1
    x	37*	77	33433

Going on with the list.
Results follow in this order: HCMV NEC inh	GIV-Gai inh	GIV Gai FP conf	GIV Gai AS conf
- Oc1ccc(Cl)cc1C1=Nc2ccccc2N=C(c2ccc(Cl)cc2)C1
    x	99	x	x
- Oc1ccccc1C1=Nc2ccccc2N=C(c2ccc(Cl)cc2)C1
    -1	72*!	68	44887
- CC(C)c1cc(C2CCCN2C(=O)Cn2cc(Cl)cn2)on1 (stereo unspecified)
    x	100	x	x
- COc1cc(C(=O)Nc2cc(C)c3c(=O)oc4ccccc4c3n2)cc(OC)c1OC
    12	152	73	37152
- Cc1ccccc1C(=O)Nc1cc(C)c2c(=O)oc3ccccc3c2n1
    x	109	x	x
- CCOC(=O)[C@@H]1Nc2ccc(Br)cc2[C@@H]2C=CC[C@H]12
    -44	125	x	x
- CCOC(=O)[C@@H]1Nc2ccc(C(=O)O)cc2[C@@H]2C=CC[C@H]12
    x	63*	50*	2184*
- CCOc1ccc(C(=O)Nc2ccc3oc(-c4ccncc4)nc3c2)cc1Br
    x	108	x	x
- CCOc1ccc(C(=O)Nc2ccc(-c3nc4ccccc4o3)cc2)cc1Br
    7	69*	79	44420
- O=C1C(Cc2ccc(-c3nn[nH]n3)cc2)=C(c2ccccc2)S(=O)(=O)c2ccccc21
    -21	86	62	36755*
- O=C1c2ccccc2S(=O)(=O)c2cc(-c3nn[nH]n3)ccc21
    -209	97	x	x
- CCCN1C(=O)c2ccccc2Sc2cc(-c3noc(-c4ccncc4)n3)ccc21
    x	98	x	x
- O=C(Cn1c(=O)c2ccccc2n2c(=S)sc(-c3ccccc3)c12)NCC1CCCO1 (stereo unspecified)
    -16	78*	72	23082
- CCN(CC)C(=O)Cn1c(=O)c2ccccc2n2c(=S)sc(-c3ccccc3F)c12
    -41	121	x	x
- CCN(CC)C(=O)Cn1c(=O)c2ccccc2n2c(=S)sc(-c3ccc(Br)cc3)c12
    -29	100	94	27284
- O=C(Cn1c(=O)c2ccccc2n2c(=S)sc(-c3ccc(Br)cc3)c12)N1CCCC1
    -19	94	x	x
- COc1cc(C2C(C#N)=C(N)Oc3n[nH]c(-c4ccc(Br)cc4)c32)ccc1OC(=O)N1CCOCC1 (stereo unspecified)
    x	105	x	x
- O=C(c1ccc(CN2C(=O)C3CCCN3C(=O)c3ccccc32)cc1)N1CCOCC1 (stereo unspecified)
    x	107	x	x
- Cc1cc(C(F)(F)F)c2c(n1)sc1c(O)cc(=O)[nH]c12
    x	109	x	x
- O=c1cc(O)c2sc3nc(-c4ccco4)cc(C(F)(F)F)c3c2[nH]1
    -64	72*	60*	5742*
- Cc1nc2ccccc2c2nc(NC(=O)c3ccc4nsnc4c3)nn12
    -19	93	x	x
- Cc1cc2nc3c(=O)n(C)c(=O)[nH]c3nc2cc1N=CN(C)C
    -26	88	12*	26021*
- CCCCCCn1c(=O)[nH]c2nc3cc(N)c(C)cc3nc2c1=O
    -39	111	x	x
- CC(=O)Nc1cc2nc3[nH]c(=S)[nH]c(=O)c3nc2cc1C
    -132	109	x	x
- CC(=O)Nc1cc2nc3[nH]c(=O)n(C)c(=O)c3nc2cc1C
    -42	69*	52	35695
- O=C(CSc1nc(NCCc2ccccc2)c2ccccc2n1)NCC1CCCO1 (stereo unspecified)
    x	107	x	x
- CCOc1ccc(C2C3CN(CC)CC=C3C(C#N)=C(N)C2(C#N)C#N)cc1 (stereo unspecified)
    x	125	x	x
- CCCN1CCC2(CC1)C1CN(CCC)CC=C1C(C#N)=C(N)C2(C#N)C#N (stereo unspecified)
    -47	88	61	50169
- CCOc1ccc(NC(=O)Cn2c(=O)nc(NCc3ccccc3)c3ccccc32)cc1
    x	101	x	x
- Cc1ccc2oc(=O)c(/C=C(\O)c3ccco3)nc2c1
    -24	109	x	x

Part of the list above, limited to HCMV NEC inh and GIV-Gai inh:
| SMILES | HCMV NEC inh | GIV-Gai inh |
| --- | --- | --- |
| CCCCCCn1c(=O)[nH]c2nc3cc(N)c(C)cc3nc2c1=O | -39 | 111 |
| CCCN1C(=O)c2ccccc2Sc2cc(-c3noc(-c4ccncc4)n3)ccc21 | x | 98 |
